Test results taken from PubChem BioAssay AID1531 (NMMLSC, 2009).
The entries are a selection whose mix differs from that of the whole data set. Active and inactive are the calls of the source. Cut-off read from the data, not from the text of the source: active = binding response below about 67% or above about 130%; inconclusive = no clear call, values can overlap the other calls; inactive = in between.

What follows are molecules tested against Mitogen-activated protein kinase kinase kinase 2 (Homo sapiens) (UniProt Q9Y2U5) (assay: wildtype MEKK2 PB1-MEK5 interaction, increase or decrease – biochemical, multiplex bead flow cytometry, Alexa488-MEK5, primary screen (AID 1531)). Details: Alexa488-MEK5 binding to MEKK2 WT, at 10 µM, actives lie on both sides.
For `CCOP1(=S)c2c(C)nn(CCC#N)c2N=C(c2ccccc2F)N1C` (stereo unspecified), the binding response (% of control) was inactive: 113%. For `CCOP(=O)(Nc1cccc2ccccc12)OCC`, the binding response (% of control) was inactive: 94%. For `COc1cc(C2NCCC3(OCCO3)C2(C)C)cc(OC)c1OC` (stereo unspecified), the binding response (% of control) was inactive: 98%. With `CCCOP(=S)(Nc1nc(N)cc(=O)[nH]1)OCCC` the binding response (% of control) was inactive: 65%. In the case of `Nc1cccc2c([As](=O)(O)O)cccc12`, the binding response (% of control) is reported as inactive: 101%. `Cc1ccc(NCCc2c([N+](=O)[O-])cc([N+](=O)[O-])cc2[N+](=O)[O-])cc1` was tested, and the binding response (% of control) was inactive: 91%. `O=[As](O)(c1cccc(O)c1)c1cccc(O)c1` was tested, and the binding response (% of control) was inactive: 91%. In the case of `Cc1cccc(OCC(=O)OC2CN3CCC2CC3)c1` (stereo unspecified), the binding response (% of control) is reported as inactive: 91%. In the case of `CS(=O)(=O)c1ccc(Cl)c(NC(=O)COC(=O)C(O)(c2ccccc2)c2ccccc2)c1`, the binding response (% of control) is reported as inactive: 109%. With `COc1cc(C(=O)NCC2(N3CCOCC3)CCCCC2)cc(Cl)c1OC(C)C` the binding response (% of control) was inactive: 114%. In the case of `O=[As](O)(O)c1cccnc1`, the binding response (% of control) is reported as active: -4%. `O=C(OC1CN2CCC1CC2)c1ccc(Cl)cc1` (stereo unspecified) was tested, and the binding response (% of control) was inactive: 107%. For `COc1ccc(N/C(=N/P(=O)(N2CCOCC2)N2CCOCC2)N2CCOCC2)cc1`, the binding response (% of control) was inactive: 108%. For `COc1cc(I)ccc1[As](=O)(O)O`, the binding response (% of control) was inactive: 98%. With `COc1ccc2nc(NP(=O)(c3ccccc3)c3ccccc3)sc2c1` the binding response (% of control) was inactive: 105%. In the case of `Cc1cc(=O)[nH]c(N[N+](=O)[O-])n1`, the binding response (% of control) is reported as inactive: 95%. For `O=C(OC1CN2CCC1CC2)C12CC3CC(CC(C3)C1)C2` (stereo unspecified), the binding response (% of control) was inactive: 98%. In the case of `Cc1c2c(nc3ccccc13)SC(C(Cl)Cl)C2` (stereo unspecified), the binding response (% of control) is reported as inactive: 100%. With `O=[N+]([O-])c1cc([N+](=O)[O-])c(-c2ccn[nH]2)s1` the binding response (% of control) was inactive: 93%. With `CCN(CC)C(=S)SC(NC=O)C(Cl)(Cl)Cl` (stereo unspecified) the binding response (% of control) was inactive: 106%. For `CC(C)NC(=O)NP(=O)(Oc1ccccc1)Oc1ccccc1`, the binding response (% of control) was inactive: 101%. `CC(C)c1ccc(OP(=O)(Nc2ccccn2)Oc2ccccc2F)cc1` (stereo unspecified) was tested, and the binding response (% of control) was inactive: 92%. With `ClCCSc1nnc(-c2cccnc2)o1` the binding response (% of control) was inactive: 95%. In the case of `Cc1ccc2nc3c(c(C)c2c1)CC(C(Cl)Cl)S3` (stereo unspecified), the binding response (% of control) is reported as inactive: 109%. `Cc1ccc(OP(=O)(Nc2ccc([N+](=O)[O-])cn2)Oc2ccc(C)cc2)cc1` was tested, and the binding response (% of control) was inactive: 89%. With `C[As](=O)(O)c1cccc(C(=O)O)c1` the binding response (% of control) was inactive: 64%. `O=[As](O)(c1ccc(O)cc1)c1ccccc1O` was tested, and the binding response (% of control) was inactive: 112%. For `O=[N+]([O-])c1ccc(Nc2ccc(Oc3ccc([N+](=O)[O-])cc3[N+](=O)[O-])cc2)c([N+](=O)[O-])c1`, the binding response (% of control) was inactive: 99%. With `O=P(Nc1ccccn1)(c1cccc2ccccc12)c1cccc2ccccc12` the binding response (% of control) was inactive: 99%. In the case of `Cc1cc(SC(NC=O)C(Cl)(Cl)Cl)ncn1` (stereo unspecified), the binding response (% of control) is reported as inactive: 99%. With `CCOC(=O)Nc1cccc([As](=O)(O)O)c1` the binding response (% of control) was inactive: 97%. For `Cc1cc(SC(NC(=O)c2ccccc2)C(Cl)(Cl)Cl)nc(C(C)C)n1` (stereo unspecified), the binding response (% of control) was inactive: 130%. With `CCCCOc1ccc(C(=O)NCC2(N3CCCCC3)CCCCC2)cc1OC` the binding response (% of control) was inactive: 102%. For `CCOC(=O)Nc1ccc([As](=O)(O)O)c(O)c1`, the binding response (% of control) was inactive: 106%. In the case of `CCC(C)N(CC(C)C)C(=S)SC(NC(C)=O)C(Cl)(Cl)Cl` (stereo unspecified), the binding response (% of control) is reported as inactive: 93%. In the case of `CCOC(=O)c1ccc(NC(=O)C(C)(CCl)SC)cc1` (stereo unspecified), the binding response (% of control) is reported as inactive: 97%. `O=C(OC1CN2CCC1CC2)c1cccc([N+](=O)[O-])c1` (stereo unspecified) was tested, and the binding response (% of control) was inactive: 106%. With `O=C(Nc1ccncc1[N+](=O)[O-])c1ccc([N+](=O)[O-])cc1[N+](=O)[O-]` the binding response (% of control) was inactive: 109%. With `COP1(=S)c2c(C)nn(CCC#N)c2N=C(c2ccc(F)cc2)N1C` (stereo unspecified) the binding response (% of control) was inactive: 97%. `CN(C)C(=O)OCCc1n(C)cc[n+]1C` was tested, and the binding response (% of control) was inactive: 96%. `CC(C)=N/N=C(\N)N[N+](=O)[O-]` was tested, and the binding response (% of control) was inactive: 92%. `CC1CCN(C(=O)Oc2c(Cl)cc(Cl)c3cccnc23)CC1` was tested, and the binding response (% of control) was inactive: 95%. With `C[N+]1=C2C=CC=CC=C2SC12C([N+](=O)[O-])=CC([N+](=O)[O-])=C[C-]2[N+](=O)[O-]` (stereo unspecified) the binding response (% of control) was active: 60% [inhibitor]. In the case of `Nc1ccc([As](=O)(O)c2ccc(N)cc2)cc1`, the binding response (% of control) is reported as inactive: 100%. For `CCN(/C(=N/P(=O)(N1CCOCC1)N1CCOCC1)N1CCOCC1)c1ccc(OC)cc1`, the binding response (% of control) was inactive: 111%. With `O=[N+]([O-])c1cccc2n[nH]nc12` the binding response (% of control) was inactive: 100%. For `CC(=O)N1C2C3N(C(C)=O)C1C1N(C(C)=O)C(C(N1C(C)=O)N3C(C)=O)N2C(C)=O`, the binding response (% of control) was inactive: 105%. `CCc1nc2c(n1)c1c(non1O)c1c2no[n+]1[O-]` was tested, and the binding response (% of control) was inactive: 102%. `O=[N+]([O-])c1cc([N+](=O)[O-])c(CCNc2ccccc2)c([N+](=O)[O-])c1` was tested, and the binding response (% of control) was inactive: 99%. With `Cc1ccc(NP(=O)(Oc2ccccc2)Oc2ccccc2)nc1` the binding response (% of control) was inactive: 80%. `COc1ccc(C2=NCC(CBr)S2)cc1` (stereo unspecified) was tested, and the binding response (% of control) was inactive: 114%. `O=[N+]([O-])c1cccc(NC2=NCC(CBr)S2)c1` (stereo unspecified) was tested, and the binding response (% of control) was inactive: 96%. For `O=C(O)CNc1ccc([As](=O)(O)O)cc1`, the binding response (% of control) was inactive: 96%. In the case of `CC(C)(C)C(=O)NC(Sc1ccncn1)C(Cl)(Cl)Cl` (stereo unspecified), the binding response (% of control) is reported as inactive: 92%. In the case of `O=[N+]([O-])c1ncn(CCn2ncnc2[N+](=O)[O-])n1`, the binding response (% of control) is reported as inactive: 101%. `O=C(Nc1cc([As](=O)(O)O)ccc1O)c1ccccc1` was tested, and the binding response (% of control) was inactive: 95%. `CCN(N=Nc1nonc1N)c1nonc1N` was tested, and the binding response (% of control) was inactive: 102%. With `Nc1cccc2ccc([As](=O)(O)O)cc12` the binding response (% of control) was inactive: 98%. For `O=[N+]([O-])c1cc([N+](=O)[O-])c(CCN2CCOCC2)c([N+](=O)[O-])c1`, the binding response (% of control) was inactive: 102%. For `Cc1ccc(NP(=O)(Oc2ccccc2F)Oc2ccccc2F)nc1`, the binding response (% of control) was inactive: 103%. In the case of `CN(C(=O)Cc1ccc(Cl)c(Cl)c1)[C@H]1CCCC[C@@H]1N1CCCC1`, the binding response (% of control) is reported as inactive: 115%. `CCOP(=O)(Nc1ccccc1)OCC` was tested, and the binding response (% of control) was inactive: 104%. With `Cc1cc(SC(NC(=O)c2ccc(F)cc2)C(Cl)(Cl)Cl)ncn1` (stereo unspecified) the binding response (% of control) was inactive: 115%. For `O=C(O)c1ccccc1[As](=O)(O)O`, the binding response (% of control) was inactive: 98%. In the case of `CC(=O)Nc1ccc([As](=O)(O)O)cc1`, the binding response (% of control) is reported as inactive: 98%. In the case of `O=P(Nc1nc2ccc(Cl)cc2s1)(c1ccccc1)c1ccccc1`, the binding response (% of control) is reported as inactive: 94%.
